Chains of the proteins cited; added tags and fusions are not shown. Residues count along the entry.
UniProt P05067, 672-711: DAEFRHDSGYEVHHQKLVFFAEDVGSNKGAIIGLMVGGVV

In US5854204A, “Aβ peptides that modulate β-amyloid aggregation” (priority 1996, dated 1998):

Target: Aβ1-40 (Homo sapiens, UniProt P05067)
Details: Table II; 100 mole % relative to 50 μM Aβ1-40
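Note: Aβ nucleation assay tracking fiber polymerization from monomer by turbidity (light scattering), shaken continuously in 96-well plates, read every 15 min over 5 h, compared with compound-free control.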

`CC(C)[C@H](NC(=O)[C@H](CCC(=O)O)NC(=O)[C@H](Cc1ccc(O)cc1)NC(=O)CNC(=O)[C@H](CO)NC(=O)[C@H](CC(=O)O)NC(=O)[C@H](Cc1c[nH]cn1)NC(=O)[C@H](CCCNC(=N)N)NC(=O)[C@H](Cc1ccccc1)NC(=O)[C@H](CCC(=O)O)NC(=O)[C@H](C)NC(=O)[C@H](CC(=O)O)NC(=O)CCCC[C@@H]1SC[C@@H]2NC(=N)N[C@@H]21)C(=O)N[C@@H](Cc1c[nH]cn1)C(=O)N[C@@H](Cc1c[nH]cn1)C(=O)N[C@@H](CCC(N)=O)C(=O)O` [PPI-172] was tested, and the “Fold Increase in Lag Time” value was 1.2 fold.
